In PMC7179312 (Antimicrobial Agents and Chemotherapy, 2020):

How the values were obtained:
[1] = system: P. aeruginosa PAM1154 carrying pUCP24-KPC-2 (PAM4135); assay: MIC, CLSI broth microdilution; assay type: cell-based; details: Pseudomonas aeruginosa; PAM4135, pUCP24-KPC-2; drug alone
Text: The effects of KPC mutations on resistance to various antibiotics were investigated. For these studies, pUCP24 plasmids carrying wild-type and mutant blaKPC-2 genes as well as the pUCP24 vector were transformed into PAM1154, an efflux-deficient strain of Pseudomonas aeruginosa. In this host, the effect of β-lactamases on β-lactam MIC is amplified due to the slowed uptake of β-lactams across the low-permeability outer membrane without interference by efflux of either β-lactams or BLIs. Consequently, this host allows detection of β-lactamase activity (as an MIC increase) of low-catalytic-efficiency enzymes that rely heavily on the low permeability of the outer membrane. Using the strain that lacks efflux pumps ensures no interference from efflux in interpreting results. We next evaluated the steady-state protein expression levels in bacterial cells.
For microbiological studies, wild-type blaKPC-2 and its mutant variants were cloned into the shuttle vector pUCP24. Resulting plasmids were transformed in the efflux-deficient strain of P. aeruginosa PAM1154 using selection on 15 μg/ml of gentamicin. […] MICs were determined using the Clinical and Laboratory Standards Institute (CLSI) broth microdilution method as described in CLSI document M07-A11 ([42]). […] E50 is calculated as the square root of the product of the antibiotic MICs for the KPC-producing and the vector-only strains.

[2] = system: P. aeruginosa PAM1154 carrying wild-type KPC-2 (PAM4135); assay: Checkerboard potentiation of antibiotic activity by BLIs; assay type: cell-based, Pseudomonas aeruginosa; details: PAM4135 KPC-2
Text: BLI potency was defined as PV50 (PV, potentiation value) of antibiotic potentiation. PV50 is the concentration of a BLI that is required to reduce the antibiotic MIC to the middle of the MIC range where the highest MIC is the MIC for a KPC-producing strain with no inhibitor added and the lowest MIC is the MIC for the vector-alone strain, which corresponds to complete inhibition of KPC. As a given MIC is directly related to the β-lactamase activity, PV50 might be considered the concentration of a BLI that is required to achieve half-effect of inhibition of β-lactamase activity (in whole cells) to hydrolyze an antibiotic of interest. […] However, the accurate determination of PV50 requires the MIC range to be relatively wide.
For microbiological studies, wild-type blaKPC-2 and its mutant variants were cloned into the shuttle vector pUCP24. Resulting plasmids were transformed in the efflux-deficient strain of P. aeruginosa PAM1154 using selection on 15 μg/ml of gentamicin. Using a strain of P. aeruginosa as opposed to E. coli as a host for various cloned genes was based on the following consideration. As well documented elsewhere ([41]), P. aeruginosa has a low-permeability outer membrane; consequently, the effect of β-lactamases on MIC is amplified in P. aeruginosa compared to that in E. coli due to the slowed uptake of β-lactams. Thus, this host is appropriate to detect β-lactamase activity (as an MIC increase) of low-catalytic-efficiency enzymes that rely heavily on low permeability of the outer membrane. […] MICs were determined using the Clinical and Laboratory Standards Institute (CLSI) broth microdilution method as described in CLSI document M07-A11 ([42]). […] BLI potency was defined as PV50 (PV, potentiation value). PV50 is the minimal concentration of a BLI that is required to reduce the antibiotic MIC to the middle of the MIC range (E50) where the highest MIC is the MIC for a KPC-producing strain with no inhibitor added and the lowest MIC is the MIC for the vector-only strain, corresponding to the complete inhibition of KPC. E50 is calculated as the square root of the product of the antibiotic MICs for the KPC-producing and the vector-only strains.
[…]
8 antibiotic MIC values for the beta-lactamas e-producing and the vector onl y strain.

In the case of `CCN1CCN(C(=O)N[C@@H](C(=O)N[C@@H]2C(=O)N3[C@@H]2SC(C)(C)[C@@H]3C(=O)O)c2ccccc2)C(=O)C1=O` [Piperacillin, piperacillin], the MIC [1] is reported as 128 µg/mL, the “Beta-lactam MIC in the presence of BLI” value ([2]; avibactam 0.06 µg/ml) is reported as 64 µg/mL and the “Beta-lactam MIC in the presence of BLI” value ([2]; avibactam 0.5 µg/ml) is reported as 2 µg/mL. For the same molecule, the “Beta-lactam MIC in the presence of BLI” value ([2]; avibactam 1 µg/ml) was 1 µg/mL, the “Beta-lactam MIC in the presence of BLI” value ([2]; avibactam 2 µg/ml) was 0.5 µg/mL and the “Antibiotic MIC with avibactam at 4 μg/ml” value ([2]; avibactam 4 μg/ml) was 0.5 µg/mL. The “Beta-lactam MIC in the presence of BLI” value ([2]; avibactam 4 μg/ml) was 0.5 µg/mL, the “Beta-lactam MIC in the presence of BLI” value ([2]; avibactam 64 µg/ml) was 0.03 µg/mL and the “Antibiotic MIC, No BLI” value ([2]; no BLI) was 128 µg/mL. For the same molecule, the “Beta-lactam MIC in the presence of BLI” value ([2]; vaborbactam 0.5 µg/ml) was 8 µg/mL, the “Beta-lactam MIC in the presence of BLI” value ([2]; vaborbactam 1 µg/ml) was 1 µg/mL and the “Beta-lactam MIC in the presence of BLI” value ([2]; vaborbactam 2 µg/ml) was 0.5 µg/mL. For the same molecule, the “Beta-lactam MIC in the presence of BLI” value ([2]; vaborbactam […]) was 64 µg/mL.
